Target: T1, 11-beta-hydroxysteroid dehydrogenase type 2 (Mus musculus, UniProt P51661)
T1 sequence (P51661 whole entry): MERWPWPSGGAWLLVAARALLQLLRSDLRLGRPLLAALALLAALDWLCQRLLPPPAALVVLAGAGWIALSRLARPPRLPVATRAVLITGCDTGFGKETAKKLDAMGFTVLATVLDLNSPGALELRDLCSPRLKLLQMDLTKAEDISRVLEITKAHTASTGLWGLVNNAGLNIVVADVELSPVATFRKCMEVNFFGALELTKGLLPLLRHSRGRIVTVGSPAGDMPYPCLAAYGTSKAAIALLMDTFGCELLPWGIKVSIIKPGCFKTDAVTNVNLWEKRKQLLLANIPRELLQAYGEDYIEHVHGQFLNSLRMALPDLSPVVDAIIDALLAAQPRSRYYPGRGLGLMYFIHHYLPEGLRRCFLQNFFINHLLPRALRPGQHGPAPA
Test: Inhibition of mouse 11beta-HSD2 by SPA

SMILES	IC50 [µM]
CC(C)(Oc1ccc(Cl)cc1)C(=O)N[C@H]1C2CC3CC1C[C@](C(=O)NCc1ccc(C(=O)NS(C)(=O)=O)cc1)(C3)C2	10
CC(C)(Oc1ccc(Cl)cc1)C(=O)N[C@H]1C2CC3CC1C[C@](C(=O)NCc1ccc(-c4nnn[nH]4)cc1)(C3)C2	6.2
CNC(=O)NC(=O)[C@]12CC3CC(C1)[C@@H](NC(=O)C(C)(C)Oc1ccc(Cl)cc1)C(C3)C2	16
CC(C)(Oc1ccc(Cl)cc1)C(=O)N[C@H]1C2CC3CC1C[C@](CO)(C3)C2	> 100
CC(C)(Oc1ccc(F)cc1Cl)C(=O)N[C@H]1C2CC3CC1C[C@](c1nnn[nH]1)(C3)C2	1.2
CC(C)(Oc1ccccc1)C(=O)N[C@H]1C2CC3CC1C[C@](C(=O)O)(C3)C2	1.5
CC(C)(Oc1ccc(Cl)cc1)C(=O)N[C@H]1C2CC3CC1C[C@](C(=O)NCC(N)=O)(C3)C2	90
CC(C)(Oc1ccccc1)C(=O)N[C@H]1C2CC3CC1C[C@](C(N)=O)(C3)C2	40

— ChEMBL document CHEMBL1138420, “Discovery of adamantane ethers as inhibitors of 11beta-HSD-1: Synthesis and biological evaluation” (Bioorg Med Chem Lett, 2007)
